Data reported in ChEMBL document CHEMBL1130195, “6-Chloro-5-methyl-1-[[2-[(2-methyl-3-pyridyl)oxy]-5-pyridyl]carbamoyl]- indoline (SB-242084): the first selective and brain penetrant 5-HT2C receptor antagonist” (J Med Chem, 1997).

Protein sequences, listed by entry. Tags and fused reporters are not part of them. Lines headed by an entry give the natural chain unless they say otherwise; changes in a name come on top.
UniProt P28335: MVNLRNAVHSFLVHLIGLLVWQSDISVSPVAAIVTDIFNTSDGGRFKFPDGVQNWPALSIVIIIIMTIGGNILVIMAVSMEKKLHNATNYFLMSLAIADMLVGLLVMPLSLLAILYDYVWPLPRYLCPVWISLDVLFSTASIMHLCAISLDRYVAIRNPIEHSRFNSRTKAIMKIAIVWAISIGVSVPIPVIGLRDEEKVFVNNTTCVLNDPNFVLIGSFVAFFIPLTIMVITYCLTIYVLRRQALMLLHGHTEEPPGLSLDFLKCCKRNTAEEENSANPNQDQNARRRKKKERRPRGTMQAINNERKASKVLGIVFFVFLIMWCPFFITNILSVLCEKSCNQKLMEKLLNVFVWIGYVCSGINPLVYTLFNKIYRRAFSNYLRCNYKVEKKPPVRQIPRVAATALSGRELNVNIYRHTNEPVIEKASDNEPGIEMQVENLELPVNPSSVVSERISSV

Biological target: 5-hydroxytryptamine receptor 2C (Homo sapiens, UniProt P28335)
Test: Displacement of [3H]mesulergine from 5-hydroxytryptamine 2C receptor expressed in HEK 293 cells
Format: cell-based, HEK293
Procedure, shortened: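 Human cloned receptors expressed in HEK 293 cells. Radioligands: [3H]5-HT for 5-HT2B, [3H]ketanserin for 5-HT2A, [3H]mesulergine for 5-HT2C. Each value is the mean of at least two determinations, each within 0.2 log unit of the mean.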

**Q.** Which Ki does the source give for Cn1ccc2cc3c(cc21)CCN3C(=O)Nc1cccnc1 here?
**A.** 12.6 nM
